# Experimental data published in patent US8696101B2, “Photopolymerizable inkjet black ink, and ink cartridge, inkjet printer and printed material using the ink, and method of preparing the ink” (Ricoh Company, Ltd., priority 2011, dated 2014).
# Test: skin sensitization test (LLNA method), OECD test guide line 429
# Format: in vivo
# Settings: photopolymerizable monomers used in clear inks B to K; SI less than 3 = no problem in skin sensitization
# Method: The LLNA method is a skin sensitization test specified as OECD test guide line 429, and as shown on page 55 in “Functional Materials” Vol. 25, No. 9 published in September, 2005, the skin sensitization is determined to have no problem when Stimulation Index (SI value) showing a degree of the skin sensitization is less than 3.
substance,measurement,value
Ethyleneoxide-modified bisphenol A diacrylate,Stimulation Index (SI value),1.2
